Results on 2 compounds are retold here after PMC4613722 (Bioscience Reports, 2015).

Sequences of proteins named here, by UniProt entry; tags and fusion partners are left off. A change or cut given only in a name is not applied to a line headed by its entry.
UniProt F4KEV7: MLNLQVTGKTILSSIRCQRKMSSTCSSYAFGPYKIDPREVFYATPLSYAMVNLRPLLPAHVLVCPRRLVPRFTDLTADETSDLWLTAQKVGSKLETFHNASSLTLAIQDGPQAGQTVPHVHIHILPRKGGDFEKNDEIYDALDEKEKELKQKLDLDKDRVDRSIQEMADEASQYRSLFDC

The test system of data set [1] is Nc1ncnc2c1ncn2[C@@H]1O[C@H](COP(=O)(O)OS(=O)(=O)O)[C@@H](O)[C@H]1O. Put plainly: purified protein. To be noted: pH 10.6.
The target in the next data set is A. thaliana Fhit (Arabidopsis thaliana, UniProt F4KEV7).

A word on the Km: it is the substrate concentration at which the rate is half of its maximum. As to human Fhit (Homo sapiens), in data set [1], the Michaelis-Menten constant (Km) was 2400 ± 300 µM.
Consider `Nc1ncnc2c1ncn2[C@@H]1O[C@H](COP(=O)(O)OS(=O)(=O)O)[C@@H](O)[C@H]1O` [SO4-pA], for which the ammonolysis assay result at A. thaliana Fhit was “A. thaliana Fhits and T. brucei HIT-45 protein do catalyse ammonolysis of SO4-pA”.
